Measured values reported in PMC6690782 (Bioorganic & medicinal chemistry letters, 2019).

Chains of the proteins cited; added tags and fusions are not shown. Lines headed by an entry give the natural chain unless they say otherwise; changes in a name come on top.
UniProt Q01650: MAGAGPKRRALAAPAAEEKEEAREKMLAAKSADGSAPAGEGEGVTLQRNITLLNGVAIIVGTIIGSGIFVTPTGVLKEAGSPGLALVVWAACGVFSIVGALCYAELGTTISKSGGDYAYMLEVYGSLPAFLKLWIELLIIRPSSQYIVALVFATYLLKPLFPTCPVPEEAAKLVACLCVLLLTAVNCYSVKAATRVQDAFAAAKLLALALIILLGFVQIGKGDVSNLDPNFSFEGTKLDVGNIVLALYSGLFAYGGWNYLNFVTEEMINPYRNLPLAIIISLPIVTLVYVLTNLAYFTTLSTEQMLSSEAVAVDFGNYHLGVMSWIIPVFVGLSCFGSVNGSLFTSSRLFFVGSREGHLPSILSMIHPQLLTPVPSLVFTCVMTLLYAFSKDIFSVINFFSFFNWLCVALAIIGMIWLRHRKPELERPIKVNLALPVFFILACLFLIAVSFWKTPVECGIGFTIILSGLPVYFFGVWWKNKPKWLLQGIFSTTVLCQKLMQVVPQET

Molecular target: LAT1 (Homo sapiens, UniProt Q01650)
Experiment: cis-inhibition assay: inhibition of [3H]-gabapentin uptake into HEK-hLAT1 cells
Type: cell-based

| inhibition at 200 µM [%] | Compound |
| --- | --- |
| 84 | N[C@@H](Cc1ccccn1)C(=O)O [Compound 19] |
| 98 | N[C@@H](Cc1cccnc1)C(=O)O [Compound 20] |
| 99 | N[C@@H](Cc1ccncc1)C(=O)O [Compound 21] |
